Literature values, collected in patent US7399860B2, “Manufacture of polyglutamate-therapeutic agent conjugates” (Cell Therapeutics Inc., priority 1999, dated 2008).

Assays:
[1] = compared with unconjugated paclitaxel (background)
tumor = settings: tumor-bearing hosts; U.S. Pat. No. 5,977,163; Li et al. 1998
[2] = compared with unconjugated paclitaxel (background); remark: listed apart in the source

polyglutamic acid-paclitaxel conjugate
water solubility [1]: increased water solubility
toxicity compared with the unconjugated form of the drug (tumor): decreased toxicity
accumulation in the tumor [2]: increased accumulation in the tumor
clearance from the body [2]: slower clearance
